Test results from ChEMBL document CHEMBL3232889, “Identification of novel SIRT2-selective inhibitors using a click chemistry approach” (Bioorg Med Chem Lett, 2014).

Target: T1, NAD-dependent protein deacetylase sirtuin-2 (Homo sapiens) (UniProt Q8IXJ6)
T1 sequence (whole entry): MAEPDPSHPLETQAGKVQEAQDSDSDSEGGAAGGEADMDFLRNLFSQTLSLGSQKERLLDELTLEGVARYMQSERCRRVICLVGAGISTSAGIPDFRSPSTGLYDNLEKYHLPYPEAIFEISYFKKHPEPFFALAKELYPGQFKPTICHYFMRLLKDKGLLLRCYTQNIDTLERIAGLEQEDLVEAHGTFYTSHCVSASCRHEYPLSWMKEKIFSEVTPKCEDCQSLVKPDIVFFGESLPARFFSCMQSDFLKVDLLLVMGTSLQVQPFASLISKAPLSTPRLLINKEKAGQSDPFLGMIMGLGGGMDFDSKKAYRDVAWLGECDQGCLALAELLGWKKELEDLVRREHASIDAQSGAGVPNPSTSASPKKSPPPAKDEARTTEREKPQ
Conditions: at 10 µM
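Note: recombinant enzyme with Fluor-de-Lys substrate, compound preincubated 60 min before substrate, fluorescence read after a further 60 min.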

SMILES: [N-]=[N+]=Nc1ccc([N+](=O)[O-])cc1
- inhibition: Active

Activity calls are given as the source filed them. The rule behind the calls is not given here.
